# Assay results: patent publication US10280169B2, “Biaryl bruton's tyrosine kinase inhibitors” (BIOGEN MA INC., priority 2013, dated 2019)
# Amino acid sequences for entries named in this document (tags omitted).
# UniProt P35991, whole entry: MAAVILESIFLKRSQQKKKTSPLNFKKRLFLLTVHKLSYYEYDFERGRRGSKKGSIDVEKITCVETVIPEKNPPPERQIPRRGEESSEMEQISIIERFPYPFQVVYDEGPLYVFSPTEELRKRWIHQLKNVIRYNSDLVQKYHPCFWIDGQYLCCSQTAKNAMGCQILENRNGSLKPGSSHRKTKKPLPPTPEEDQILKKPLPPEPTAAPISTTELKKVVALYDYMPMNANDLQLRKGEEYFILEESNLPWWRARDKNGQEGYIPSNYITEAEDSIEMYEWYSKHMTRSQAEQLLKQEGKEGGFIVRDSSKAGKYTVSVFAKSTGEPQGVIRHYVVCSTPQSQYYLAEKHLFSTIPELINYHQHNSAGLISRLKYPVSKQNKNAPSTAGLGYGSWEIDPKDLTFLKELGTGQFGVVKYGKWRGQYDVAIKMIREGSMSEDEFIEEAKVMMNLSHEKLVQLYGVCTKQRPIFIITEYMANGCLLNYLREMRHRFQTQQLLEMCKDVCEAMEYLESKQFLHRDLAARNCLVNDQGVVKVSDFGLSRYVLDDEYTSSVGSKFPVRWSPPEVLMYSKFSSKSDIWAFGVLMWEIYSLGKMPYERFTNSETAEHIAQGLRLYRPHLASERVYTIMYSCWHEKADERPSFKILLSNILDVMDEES
# UniProt Q06187, whole entry: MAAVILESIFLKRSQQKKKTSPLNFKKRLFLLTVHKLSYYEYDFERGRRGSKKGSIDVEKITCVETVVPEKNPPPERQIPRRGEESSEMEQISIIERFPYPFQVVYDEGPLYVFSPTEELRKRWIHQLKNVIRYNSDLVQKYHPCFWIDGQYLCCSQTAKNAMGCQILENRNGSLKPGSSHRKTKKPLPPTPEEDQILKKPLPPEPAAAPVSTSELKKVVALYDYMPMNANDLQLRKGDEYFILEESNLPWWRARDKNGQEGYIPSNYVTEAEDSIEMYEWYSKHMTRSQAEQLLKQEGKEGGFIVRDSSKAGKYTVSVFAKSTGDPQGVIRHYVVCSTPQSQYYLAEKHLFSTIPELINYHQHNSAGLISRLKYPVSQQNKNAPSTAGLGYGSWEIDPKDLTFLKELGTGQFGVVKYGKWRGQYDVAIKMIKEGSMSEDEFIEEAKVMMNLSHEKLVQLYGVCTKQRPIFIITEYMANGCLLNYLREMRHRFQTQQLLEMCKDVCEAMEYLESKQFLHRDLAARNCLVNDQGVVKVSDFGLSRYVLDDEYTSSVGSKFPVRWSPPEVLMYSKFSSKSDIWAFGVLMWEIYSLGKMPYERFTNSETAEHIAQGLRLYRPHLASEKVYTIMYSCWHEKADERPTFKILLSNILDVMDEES
# How the values were obtained:
# BTK phosphorylation [1] = target: BTK phosphorylation (Mus musculus, UniProt P35991); test: In vitro inhibition of BTK activity in mouse whole blood (pBTK, MSD ECL)
# Experimental: Anti-rabbit MSD plates (Meso Scale Discovery, Rockville, Md.) are coated with 35 uL/well of rabbit anti-BTK C82B8 (Cell Signaling Technology, Danvers, Mass.) diluted 1:50 in PBS. Plates are incubated for 2 hours±1 hour at room temp, shaking (setting 3-5) or ON at 4° C. Plates are blocked with MSD Blocker A (Meso Scale Discovery, Rockville, Md.) using 3% MSD Blocker A in TBST. Coated plates are first washed 3× with 250 uL/well TBST followed by addition of 200 uL/well 3% Blocker A/TBST. Plates are blocked for >2 hour at RT, shaking or ON at 4° C.
# Whole blood is collected from DBA/1 mice in 16×100 sodium heparin tubes (Becton Dickinson, Cat No. 367874). Blood from multiple DBA/1 mice is pooled. 96 uL of whole blood per well is aliquotted into a 96-round bottom plate changing tips each time. 4 uL diluted test compound is added to each sample, mixed, and incubated for 30 min at 37° C.
# For serial dilutions of test compound, 1000× plate is produced with serial dilutions of test compound in 100% DMSO. […]
# To develop and read the plates, 1× Read Buffer in dH2O is prepared from 4× stock. […] 150 uL of 1×MSD Read Buffer is added to each well. Plates are read in a SECTOR Imager 6000 (Meso Scale Discovery, Rockville, Md.). […]
# phospho-BTK = phospho-BTK (Mus musculus, UniProt P35991); test: PK/PD correlation in DBA1 mice (phospho-BTK in whole blood after oral dosing)
# Experimental: Mice were dosed orally (PO) with test compound in CMC-Tween and killed by CO2 asphyxiation at various times after dosing. Heparinized whole blood was immediately collected by cardiac puncture and split into two samples. One sample was used to quantify the amount of test compound present and the other was lysed in MSD lysis buffer in the presence of phosphatase inhibitors. Heparinized whole blood from cardiac punctures of vehicle (CMC-Tween) dosed mice are lysed either in the presence (high control) or absence (low control) of phosphatase inhibitors. Lysed whole blood samples were analyzed for phospho-BTK as described above. The percent inhibition of phospho-BTK in each whole blood sample from dosed mice was calculated as follows: (1−((pBTK(x+PPi)−pBTK(vehicle−PPi))/(pBTK(vehicle+PPi))))*100, where pBTK(x+PPi) is the ECL signal for whole blood from each test compound-treated mouse, pBTK(vehicle−PPi) is the average ECL signal of whole blood from vehicle-treated mice lysed in the absence of phosphatase inhibitors (low control) and pBTK(vehicle+PPi) is the average ECL signal of whole blood from vehicle-treated mice lysed in the presence of phosphatase inhibitors (high control).
# Mice were dosed orally with either vehicle, 0.1, 0.3, 1, 3, 10 or 30 mg drug/kg body weight and killed after one hour. […] The EC50 value was determined to be 218 nm, with a Hill slope of 0.35 and R^2 value of 0.61.
# BTK phosphorylation [2] = target: BTK phosphorylation (Homo sapiens, UniProt Q06187); test: In vitro PD assay in whole blood from healthy donors or SLE patients
# Experimental: Heparinized venous blood was purchased from Bioreclamation, Inc. or SeraCare Life Sciences and shipped overnight. Whole blood was aliquoted into 96-well plate and “spiked” with serial dilutions of test compound in DMSO or with DMSO without drug. The final concentration of DMSO in all wells was 0.1%. The plate was incubated at 37° C. for 30 min. Lysis buffer containing protease and phosphatase inhibitors was added to the drug-containing samples and one of the DMSO-only samples (+PPi, high control), while lysis buffer containing protease inhibitors was added to the other DMSO-only samples (−PPi, low control). All of the lysed whole blood samples were subjected to the total BTK capture and phosphotyrosine detection method described in Example 30. ECL values were graphed in Prism and a best-fit curve with restrictions on the maximum and minimum defined by the +PPi high and −PPi low controls was used to estimate the test compound concentration that results in 50% inhibition of ECL signal by interpolation.
# Heparinized venous blood from healthy controls (HC) was obtained from in-house donors. Blood from a patient diagnosed with Systemic Lupus Erythematosis (SLE) was purchased from Bioreclamation, Inc. and shipped overnight. The assay was carried out as described above in Example 32, using Compound A as a test drug compound.
# BTK phosphorylation [3] = test: In vitro PD assay in whole blood from Cynomolgus monkey; conditions: read-out: IC50 (concentration that inhibits 50% of ECL signal); whole blood from a Cynomolgus monkey, FIG. 4
# Experimental: Heparinized venous blood from a Cynomolgus monkey was purchased from Bioreclamation, Inc. and shipped overnight. Whole blood was aliquoted into 96-well plate and “spiked” with serial dilutions of Compound A in DMSO or with DMSO without drug. The final concentration of DMSO in all wells was 0.1%. The plate was incubated at 37° C. for 30 min. Lysis buffer containing protease and phosphatase inhibitors was added to the drug-containing samples and one of the DMSO-only samples (+PPi, high control), while lysis buffer containing protease inhibitors was added to the other DMSO-only samples (−PPi, low control). All of the lysed whole blood samples were subjected to the total BTK capture and phosphotyrosine detection method described in Example 30. ECL values were graphed in Prism and a best-fit curve with restrictions on the maximum and minimum defined by the +PPi high and −PPi low controls was used to estimate the drug concentration that results in 50% inhibition of ECL signal by interpolation.
compound,measurement,setting,value
Cc1cc(-c2ccnc(Nc3cnn(C)c3)n2)ccc1CNC(=O)c1cnc(C(C)(C)C)s1,inhibition of BTK phosphorylation,"BTK phosphorylation [1]; mouse whole blood, FIG. 1",inhibited BTK phosphorylation in a dose dependent manner
same,IC50,"BTK phosphorylation [1]; read-out: IC50 (drug concentration that produces a 50% inhibition of BTK phosphorylation), pooled heparinized mouse whole blood, 30 min at 37° C., interpolated from best-fit curve",443 nM
same,Hill slope,"phospho-BTK; fit of % inhibition of phospho-BTK versus plasma concentration, oral dosing, one hour",0.35
same,EC50,"phospho-BTK; read-out: in vivo EC50 (% inhibition of phospho-BTK versus plasma concentration), mice dosed orally 0.1-30 mg/kg, killed after one hour, best-fit curve",218 nM
same,IC50,"BTK phosphorylation [2]; read-out: IC50 (concentration that inhibits 50% of ECL signal), whole blood from a SLE patient, FIG. 3C",1700 nM
same,IC50,"BTK phosphorylation [2]; read-out: IC50 (concentration that inhibits 50% of ECL signal), whole blood from a healthy control, FIG. 3A",400 nM
same,IC50,"BTK phosphorylation [2]; read-out: average IC50 value, whole blood from 19 healthy controls, FIG. 3B",401 nM
same,IC50,BTK phosphorylation [3],589 nM

# Read-outs that look alike come from different tables or passages of the source.
